Laboratory results from US20100311084A1, “METHODS FOR PREDICTING A PATIENT'S RESPONSE TO EGFR INHIBITORS” (PRECISION THERAPEUTICS, INC., priority 2008, published 2010).

What was measured:
[1] = tested on: pEGFR, pSTAT3, pErk, pAkt in H520 cells; test: In-Cell Western of downstream signaling molecules, H520; type: cell-based, human
Method: (§1) In-Cell Western assays. HCC827, H520, H1666 and H358 cell lines were plated in a 384-well microtiter plate at 320 cells/well and cultured for 3 days at 37° C. in 5% CO2 before drug treatment. Each cell line was cultured in RPMI 1640 containing 10% FBS. […] After treatment, cells were fixed with 4% paraformaldehyde. Cells (except for those used to detect the external EGFR staining) were permeabilized with 0.1% Triton X-100 (Fisher Scientific) in PBS. All cells were then washed twice with PBS at room temperature and incubated for 1 h at room temperature in Odyssey blocking buffer with gentle agitation to reduce the nonspecific antibody binding. Then, the cells were incubated overnight at 4° C. with primary antibody diluted in Odyssey blocking buffer with gentle agitation. The primary antibodies were mouse monoclonal antibody to the external epitope of EGFR (1:200); rabbit anti-phospho Akt (1:200), mouse anti-Akt (1:100), rabbit anti-phospho Erk (1:200), mouse anti-Erk (1:50), rabbit anti-phospho STAT3 (1:400) and mouse anti-STAT3 (1:50) (all from Cell Signaling Technology); and mouse anti-phospho EGFR (1:50) and goat anti-EGFR (1:50) (Santa Cruz Biotechnology, Santa Cruz, Calif. USA). After incubation with primary antibody, the cells were washed 4 times with PBS and incubated for 1 hour with the appropriate IR-labeled secondary antibodies [IRDye 800CW-labeled goat anti-rabbit (1:800), IRDye 800CW-labeled goat anti-mouse (1:800), IRDye 800CW-labeled donkey anti-mouse (1:800), IRDye 680-labeled goat anti-mouse (1:400), IRDye 680-labeled donkey anti-goat (1:400), LI-COR] in 0.1% Tween-20 in Odyssey blocking buffer. Cells were then washed 4 times using PBST for 5 minutes with gentle agitation. After the last PBST wash, all liquid was removed from the wells and the plates were immediately scanned on a LI-COR Odyssey Infrared Imaging System and analyzed using Odyssey software and Microsoft Excel (v. 2003, Microsoft Corporation, Redmond, Wash., USA). Integrated intensity ratios were calculated for each cell line by subtracting the background intensity from the negative control intensity for the channel and then dividing the intensity at the 800 channel (green) by the intensity at the 700 channel (red).

[2] = tested on: pEGFR, pSTAT3, pErk, pAkt in HCC827 cells; test: In-Cell Western of downstream signaling molecules, HCC827; type: cell-based, human
Method: as §1

[3] = tested on: colorectal carcinoma; conditions: cited from earlier work
[4] = tested on: primary lung cancer cultures; test: ChemoFx assay, cetuximab, primary lung cancer cultures; type: cell-based, human
From the text: Patient tumor specimens. Deidentified colorectal and lung cancer specimens were procured for research purposes from the National Disease Research Interchange (Philadelphia, Pa.), Cooperative Human Tissue Network (Philadelphia, Pa.), Forbes Regional Hospital (Monroeville, Pa.), Jameson Hospital (New Castle, Pa.), Saint Barnabas Medical Center (Livingston, N.J.), Hamot Medical Center (Erie, Pa.) and Windber Research Institute (Windber, Pa.). Tumor type was provided as either colorectal or NSCLC or other lung cancer. Small-cell lung carcinomas or mesothelioma were not included. Stage for any specimen was not available.
After surgical removal, each specimen was placed in a 125-mL bottle containing sterile McCoy's shipping medium (Mediatech, Manassas, Va.) and shipped overnight to the research laboratory at Precision Therapeutics, Inc (Pittsburgh, Pa.).
Cell lines and tissue specimens were processed and tested with the ChemoFx® assay as described elsewhere. Also see, U.S. Pat. Nos. 5,728,541, 6,900,027, 6,887,680, 6,933,129, 6,416,967, 7,112,415, and 7,314,731; and U.S. application Ser. Nos. 10/399,563, 11/504,098, 11/595,967, 11/713,662, and 11/785,984, all of which are hereby incorporated by reference in their entireties, and especially with regard to tissue processing and cell culturing techniques, and assays. […] The same 10-dose concentration range was used for the cell lines and the tissue specimens. For each dose, a cytotoxic index (CI) was calculated according to the following formula: CI=Mean cell countdose x/mean cell countcontrol, which represents the ratio of cells killed as a result of the treatment. Cell counts were the average of 3 replicates at each dose for primary cultures and 9 replicates at each dose for immortalized cell lines. Dose response curves were generated using the CI at each of 5 doses contained within the 10 dose range. Adjusted areas under the curve (aAUC) were calculated for each dose-response curve as previously described and used to set cutoff values for the categorical responses.

[5] = tested on: NSCLC; conditions: cited from earlier work
[6] = 1.6 nM or 1.6 μM cetuximab for 4 h, versus control cells
[7] = 34 specimens from lung cancer patients, 72 hour exposure

Substance: Cetuximab
- normalized expression of pAkt ([1]; any time point): no changes
- normalized expression of pErk ([1]; any time point): no changes
- normalized expression of pEGFR ([1]; any time point (2, 4, 24 h)): no changes
- normalized expression of pSTAT3 ([1]; any time point (2, 4, 24 h)): no changes
- normalized expression of pAkt [2, 6]: lower
- normalized expression of pErk [2, 6]: lower
- normalized expression of pAkt ([2]; 2 or 24 h after treatment): no change
- normalized expression of pEGFR ([2]; any time point (2, 4, 24 h)): no changes
- normalized expression of pSTAT3 ([2]; any time point (2, 4, 24 h)): no changes
- patients with partial response ([3]; Phase IIB study, irinotecan-refractory colorectal cancer patients [35]): 10.8%
- partial response rate ([3]; open-label Phase II study, monotherapy, chemotherapy refractory patients, Saltz et al. [36]): 9%
- primary cultures IR to cetuximab [4, 7]: 6%
- primary cultures NR to cetuximab [4, 7]: 91%
- primary cultures R to cetuximab [4, 7]: 3%
- ChemoFx cetuximab-sensitivity rate (combination of R and IR data) ([4]; samples from patients with NSCLC): 9%
- patients with partial response ([5]; Phase II trial, cetuximab monotherapy, NSCLC, preliminary report [44]): 6%
- overall response rate ([5]; open-label phase II study, single agent, recurrent or progressive NSCLC [45]): 4.5%
